Measured values from PubChem BioAssay AID1259318 (Sanford-Burnham Center for Chemical Genomics, 2017).
This is a selection; strong and weak results do not stand in their true shares. Some of these compounds have results that are not shown, active ones among them. Calls of active or inactive are those of the source.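 How the source made its calls: active means activity above about 14% (limit read from the data; passing the limit was not always enough); inactive means the rest.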

Protein sequences, listed by entry. Tags and fused reporters are not part of them.
UniProt P20393, whole entry, looked up: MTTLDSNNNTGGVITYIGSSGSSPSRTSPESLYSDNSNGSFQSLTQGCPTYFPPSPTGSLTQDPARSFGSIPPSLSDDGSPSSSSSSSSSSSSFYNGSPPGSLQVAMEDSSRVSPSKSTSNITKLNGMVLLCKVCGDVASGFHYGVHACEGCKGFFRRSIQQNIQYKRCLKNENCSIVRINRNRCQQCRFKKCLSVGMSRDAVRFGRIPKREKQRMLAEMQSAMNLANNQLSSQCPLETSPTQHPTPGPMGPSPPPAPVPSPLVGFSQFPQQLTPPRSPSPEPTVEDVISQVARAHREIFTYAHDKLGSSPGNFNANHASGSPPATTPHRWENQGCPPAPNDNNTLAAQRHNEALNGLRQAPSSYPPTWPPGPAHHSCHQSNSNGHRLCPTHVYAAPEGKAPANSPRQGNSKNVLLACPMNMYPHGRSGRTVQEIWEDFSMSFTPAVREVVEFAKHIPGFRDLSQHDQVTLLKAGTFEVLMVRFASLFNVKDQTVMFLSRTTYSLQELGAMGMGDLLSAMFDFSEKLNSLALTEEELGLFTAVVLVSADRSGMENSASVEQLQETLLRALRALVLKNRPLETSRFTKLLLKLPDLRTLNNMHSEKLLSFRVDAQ

Biological target: Nuclear receptor subfamily 1 group D member 1 (Homo sapiens) (UniProt P20393)
Assay: Rev-erbα–DNA interaction modulation – biochemical, FITC-DNA, fluorescence polarization, uHTS, primary screen (AID 1259318);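 further: 0% = DMSO wells with 35 nM protein and 100% = DMSO wells with 750 nM protein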
Conditions: Rev-erbα–FITC-DNA binding, 90 min, at 10 µM, stronger effect = higher value

For `CC(C)N1C(=O)CC2(CCN(CCOC(=O)C(O)(c3ccccc3)c3ccccc3)CC2)C1=O`, which activity is on record?
The activity was inactive: -3.11%.

With `COc1cc(SC)ccc1C(=O)NCC1(N(C)C)CCCCC1` as the molecule, how does the activity read?
The activity was inactive: -7.58%.

Which activity does the source give for `CCN(CC)CC(C)C(C)OC(=O)C(O)(c1ccccc1)c1ccccc1` (stereo unspecified) here?
Its activity is inactive: -5.57%.

With `Cc1ccc(C(=O)NCC2(N3CCCCC3)CCCCC2)cc1` as the molecule, how does the activity read?
The activity was inactive: 10.6%.

Which activity does the source give for `O=C(NCC1(N2CCCCC2)CCCCC1)c1cc([N+](=O)[O-])ccc1Cl` here?
Its activity is inactive: -1.27%.

Which activity does the source give for `CN1[C@@H]2CC[C@H]1CC(OC(=O)C(O)(c1ccccc1)c1ccccc1)C2` (stereo partly specified) here?
Its activity is inactive: 5.85%.

With `O=C(NCC1(N2CCCCC2)CCCCC1)c1cc(F)c(F)cc1Cl` as the molecule, how does the activity read?
Its activity is inactive: -4.27%.

For `C=CCN1CCN(CCOC(=O)C(O)(c2ccccc2)c2ccccc2)CC1`, which activity is on record?
The activity was inactive: 0.79%.

Which activity does the source give for `O=C(NCC1(N2CCCCC2)CCCCC1)c1cccc(Br)c1` here?
The activity was inactive: -3.81%.

How did the activity turn out when `CCN1CCCC(OC(=O)C2(O)c3ccccc3C=Cc3ccccc32)C1` (stereo unspecified) was run?
Its activity is inactive: -2.7%.

`Cc1cc(C(=O)NCC2(N3CCCCC3)CCCCC2)ccc1[N+](=O)[O-]` was tested. Which activity did it give?
The activity was inactive: -0.46%.

`COc1ccc(C(=O)NCC2(N(C)C)CCCCC2)cc1` was tested. Which activity did it give?
Its activity is inactive: -0.69%.

How did the activity turn out when `CN(C)c1ccc(C(=O)NCC2(N(C)C)CCCCC2)cc1` was run?
The activity was inactive: 1.75%.

With `CN(C)C1CCCC1OC(=O)C(O)(c1ccccc1)c1ccccc1` (stereo unspecified) as the molecule, how does the activity read?
The activity was inactive: -1.07%.

Which activity does the source give for `Cc1ccccc1C(=O)NCC1(N2CCCCC2)CCCCC1` here?
Its activity is inactive: -1.86%.

Which activity does the source give for `COc1ccc(Cl)cc1C(=O)NCC1(N(C)C)CCCCC1` here?
The activity was inactive: 0.27%.

For `COc1cccc(C(=O)NCC2(N3CCCCC3)CCCCC2)c1`, which activity is on record?
The activity was inactive: -0.58%.

Which activity does the source give for `O=C(NCC1(N2CCCCC2)CCCCC1)c1cccc(Cl)c1` here?
Its activity is inactive: 0.14%.

With `CN(C)C1(CNC(=O)c2ccc(Br)cc2)CCCCC1` as the molecule, how does the activity read?
The activity was inactive: 6.37%.

How did the activity turn out when `COc1cc(C(=O)NCC2(N(C)C)CCCCC2)c([N+](=O)[O-])cc1OC` was run?
The activity was inactive: 0.75%.

With `COc1ccc(Br)c(C(=O)NCC2(N3CCCCC3)CCCCC2)c1` as the molecule, how does the activity read?
The activity was inactive: -1.95%.

With `C=C(C)C#CC(O)(C(=O)OC1CCN(C)CC1)c1ccccc1` (stereo unspecified) as the molecule, how does the activity read?
The activity was inactive: -1.85%.

For `CN(C)c1cccc(C(=O)NCC2(N(C)C)CCCCC2)c1`, which activity is on record?
Its activity is inactive: -5.37%.

With `O=C(OCCN1CCCC1)C(O)(c1ccccc1)c1ccccc1` as the molecule, how does the activity read?
The activity was inactive: -9.21%.

`CC(C)Oc1ccc(C(=O)NCC2(N(C)C)CCCCC2)cc1` was tested. Which activity did it give?
Its activity is inactive: -4.72%.

With `O=C(OC1CN2CCC1CC2)C(CO)(c1ccccc1)c1ccccc1` (stereo unspecified) as the molecule, how does the activity read?
The activity was inactive: 0.59%.
